Target: recombinant IMP-1 (Serratia marcescens, UniProt P52699)
Experiment: biochemical

The chains behind the UniProt entries cited, without tags or fusion partners. Residues count along the entry.
UniProt P52699, 19-246: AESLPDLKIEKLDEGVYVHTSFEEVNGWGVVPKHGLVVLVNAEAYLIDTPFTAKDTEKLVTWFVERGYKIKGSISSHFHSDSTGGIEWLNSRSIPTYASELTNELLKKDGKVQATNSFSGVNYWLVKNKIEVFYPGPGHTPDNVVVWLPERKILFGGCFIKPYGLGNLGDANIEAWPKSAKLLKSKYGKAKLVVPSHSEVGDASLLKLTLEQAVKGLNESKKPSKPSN

| SMILES | IC50 [µM] |
| --- | --- |
| O=C(O)[C@@H]1CSC(c2ccccc2)N1 (stereo partly shown) [Compound 7] | > 200 |
| O=C(O)[C@@H]1CSC(c2ccc(Br)cc2)=N1 [Compound 9] | > 200 |
| O=C(O)[C@@H]1CSC(c2ccccc2O)=N1 [Compound 13] | > 200 |
| CC(C)(C)OC(=O)NCC1=N[C@H](C(=O)O)CS1 [Compound 16] | > 200 |
| COc1cccc(CC(=O)NCC2=N[C@H](C(=O)O)CS2)c1 [Compound 15] | > 200 |
| O=C(O)c1csc(-c2ccccc2)n1 [Compound 2] | > 200 |
| O=C(NCC1=N[C@H](C(=O)O)CS1)OCc1ccccc1 [Compound 17] | > 200 |
| O=C(O)[C@@H]1CSC(Cc2ccccc2)N1 (stereo partly shown) [Compound 6] | > 200 |
| O=C(O)[C@@H]1CSC(Cc2ccccc2)=N1 [Compound 3] | > 200 |
| O=C(Cc1ccccc1)NCC1=N[C@H](C(=O)O)CS1 [Compound 14] | > 200 |
| O=C(O)[C@@H]1CSC(c2ccc(Cl)cc2)=N1 [Compound 8] | > 200 |
| CC(=O)Nc1cccc(C2=N[C@H](C(=O)O)CS2)c1 [Compound 11] | > 200 |
| CC(C)(C)OC(=O)Nc1cccc(C2=N[C@H](C(=O)O)CS2)c1 [Compound 12] | > 200 |
